# AlphaSeq binding of Ab-91 heavy chain variants to a spike HR2 peptide

Target peptide (SARS-CoV-2 spike, HR2 region): PDVDLGDISGINAS

Parent scFv Ab-91: VL joined to VH by the linker GGGGSGGGGSGGGGS. Changes lie in the heavy chain CDRs alone.
VL: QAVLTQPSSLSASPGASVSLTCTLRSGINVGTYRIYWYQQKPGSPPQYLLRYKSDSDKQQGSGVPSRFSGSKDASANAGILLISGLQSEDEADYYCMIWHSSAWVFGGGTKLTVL
VH: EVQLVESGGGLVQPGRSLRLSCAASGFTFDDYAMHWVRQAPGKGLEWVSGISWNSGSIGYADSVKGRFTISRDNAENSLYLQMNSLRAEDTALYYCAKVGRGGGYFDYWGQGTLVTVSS

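The library (AAYL51) carries one to three amino acid substitutions per variant, with no insertions or deletions. The scFvs were displayed on barcoded MATa yeast, the peptide on MATalpha yeast. Binding brings cells together so that they mate, and sequencing counts the barcode pairs among the diploids. Each replicate has its own calibration line, from reference interactions of the BCL2 family. Mating was done three times.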

Positions count from residue 1 of the parent VH; D31M puts M in place of D. Numbers give log10(Kd / nM), so 0 is 1 nM and 3 is 1 µM. Smaller is tighter. Replicates are averaged; those with no signal do not enter the mean. A pair that was not seen in any replicate is written "nd"; this usually means weak binding, but a binder can also be missed. For reference, the parent read 1.86 as the reference entry and 0.88 as a member of this library.

The variant D31M+R101F showed 1.81 (3 of 3 replicates).
The variant S55K+V99C+F106R showed nd (0 of 3 replicates).
The variant T28N+H35C+G103I showed 4.22 (1 of 3 replicates).
The variant F27G+G102N+Y108G showed 3.68 (2 of 3 replicates).
The variant T28F+Y32M+A61N showed 3.45 (3 of 3 replicates).
The variant D31M+G50E+V64F showed nd (0 of 3 replicates).
The variant S57G+G103R+G104V showed 5.04 (1 of 3 replicates).
The variant F27R+D30K+G102F showed 4.89 (1 of 3 replicates).
The variant F27L+M34V+I51A showed 3.26 (1 of 3 replicates).
The variant F27T+G100R+Y108P showed 4.23 (1 of 3 replicates).
The variant W53D+Y60S+Y105A showed nd (0 of 3 replicates).
The variant I51K+S63K+G102A showed nd (0 of 3 replicates).
The variant W53A+G56K+D107P showed 4.12 (1 of 3 replicates).
The variant I51C+G59F+K65Q showed nd (0 of 3 replicates).
The variant I51V+G56F+D107R showed 5.08 (1 of 3 replicates).
The variant S52T+Y60Q+G102V showed 3.37 (1 of 3 replicates).
The variant F27Q+V64C showed nd (0 of 3 replicates).
The variant G59V+K65A+G103T showed 4.98 (3 of 3 replicates).
The variant G26M+G103C showed 5.47 (3 of 3 replicates).
The variant S52E+N54G+G104N showed 4.88 (1 of 3 replicates).
The variant F29R+I51Q+R101K showed 4.29 (2 of 3 replicates).
The variant D62G+G100D+Y108S showed 4.82 (2 of 3 replicates).
The variant D30R+Y32L+G56Y showed nd (0 of 3 replicates).
The variant Y32E+I58C+A61L showed nd (0 of 3 replicates).
The variant F27W+S52E+A61K showed 4.67 (3 of 3 replicates).
The variant F27K+A61I+D107S showed 4.36 (1 of 3 replicates).
The variant F27T+M34Q+A61G showed 4.70 (1 of 3 replicates).
The variant I58K+G103L showed nd (0 of 3 replicates).
The variant H35Q+W53G showed 5.70 (2 of 3 replicates).
The variant M34S+S57P+S63A showed 4.99 (2 of 3 replicates).
The variant F27G+M34E+D62K showed 5.18 (1 of 3 replicates).
The variant I51F+W53D+N54Y showed nd (0 of 3 replicates).
The variant Y32L+G50I+Y108D showed 3.35 (1 of 3 replicates).
The variant S52I+S55N+R101D showed 4.56 (2 of 3 replicates).
The variant F27E+W53S+G59R showed 4.66 (1 of 3 replicates).
The variant V64E+R101W+F106P showed 4.57 (2 of 3 replicates).
The variant F29L+W53H+Y105L showed nd (0 of 3 replicates).
The variant F27K+Y60C+G102I showed 4.29 (1 of 3 replicates).
The variant Y32C+S63R+V99L showed nd (0 of 3 replicates).
The variant H35Y+W53N+I58S showed 4.96 (1 of 3 replicates).

For reference, 6 entries of the list once more:

changes	mean log10 Kd (nM)	seen in
I51F+W53D+N54Y	nd	0 of 3
I51C+G59F+K65Q	nd	0 of 3
G26M+G103C	5.47	3 of 3
Y32L+G50I+Y108D	3.35	1 of 3
F27G+G102N+Y108G	3.68	2 of 3
Y32E+I58C+A61L	nd	0 of 3

As a blank, each scFv also met three strains without target: over library AAYL51, 21% of these pairings were detected, typically at 4.54 and seldom below 3.26.

Values reported by Engelhart et al. 2022, doi:10.1038/s41597-022-01779-4 (FLAb copy).